Target: human SSTR2 (Homo sapiens (Human), UniProt P30874)
Experiment: Human SSTR2 intracellular cAMP functional assay for agonists (HTRF)
Type: cell-based
Conditions: read-out: EC50 (inhibition of cAMP activities via human SST2R); CHO-K1 cells stably expressing human SSTR2; NKH477-stimulated cAMP

Amino acid sequences for entries named in this document (tags omitted).
UniProt P30874, whole entry: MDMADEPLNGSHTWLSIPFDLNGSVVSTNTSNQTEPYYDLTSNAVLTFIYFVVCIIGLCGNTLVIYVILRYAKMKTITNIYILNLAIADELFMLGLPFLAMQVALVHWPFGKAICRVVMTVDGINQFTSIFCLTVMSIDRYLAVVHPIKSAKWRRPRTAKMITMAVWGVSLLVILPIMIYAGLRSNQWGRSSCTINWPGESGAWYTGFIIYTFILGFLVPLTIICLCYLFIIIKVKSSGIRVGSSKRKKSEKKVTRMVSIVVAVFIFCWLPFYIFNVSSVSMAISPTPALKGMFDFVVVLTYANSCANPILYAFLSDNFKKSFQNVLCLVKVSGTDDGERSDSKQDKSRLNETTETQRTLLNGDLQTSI

Cn1ncc(-c2ccc3ncc(-c4cc(F)cc(F)c4)c(N4CC[C@H]5NCCO[C@@H]5C4)c3c2)c1N (relative stereo)
EC50: < 10 nM

Source: US10351547B2, “Somatostatin modulators and uses thereof” (priority 2016, dated 2019)
